# Experimental properties from OPERA 2.9

From the experimental data distributed with OPERA 2.9.

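These are experimental values that the OPERA curators gathered from public databases to train and test their QSAR models. A listed value is a point estimate from one report or more. Method and conditions are not stated for these values. A value may pool stereoisomers or salt forms, and the file does not say which form was measured. Unmarked limits or estimates from the upstream databases cannot be ruled out.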

Melting points are in °C.
The boiling point refers to atmospheric pressure (760 mmHg), by the definition of the set.
logP is the log10 of the octanol-water partition coefficient; higher is more lipophilic.
Water solubility is log10 of mol/L, nominally at 25 °C; higher is more soluble.
Vapor pressures (log10 mmHg) refer to near room temperature, 15 to 30 °C; higher is more volatile.
The unbound fraction in human plasma runs from 0 (all bound) to 1 (all free).
Clint is human hepatic intrinsic clearance in µL/min per million cells; 0 means that no clearance was seen.

Listed for CCOC(=O)CCC1(C)OCC(CO)O1 (stereo not given): bp 285.8 °C and logP 0.37. O=S(=O)([O-])c1cc(S(=O)(=O)O)cc2nc(-c3ccc(-c4nc5cc(S(=O)(=O)O)cc(S(=O)(=O)[O-])c5[nH]4)cc3)[nH]c12.[Na+].[Na+] is reported with logP -2.4 and log S -2.528 (log10 mol/L) and log vapor pressure -5.979 (log10 mmHg). The entry for CC(=O)OCC(CNC(=O)c1c(I)c(N)c(I)c(C(=O)O)c1I)OC(C)=O (stereo not given) lists melting point 191.8 °C and logP -2.73. For CC(C)C1CCC(CO)CC1 (stereo not given) the data give melting point -20.07 °C and logP 3.48 and log S -2.864 (log10 mol/L) and log vapor pressure -1.773 (log10 mmHg). O=C(c1ccc(O)cc1)c1cccc(C(=O)c2ccc(O)cc2)c1 is reported with melting point 215.5 °C and log S -6.469 (log10 mol/L). For C=C(C)C(=O)OCc1ccccc1 the data give melting point -22 °C and log S -2.968 (log10 mol/L) and log vapor pressure -1.648 (log10 mmHg).

For CCCCN(CCCC)C[Si](OCC)(OCC)OCC the data give melting point -132.5 °C and log vapor pressure -2.119 (log10 mmHg). Listed for Brc1c(Br)c(Br)c(CCc2c(Br)c(Br)c(Br)c(Br)c2Br)c(Br)c1Br: logP 3.55 and log S -9.13 (log10 mol/L). The entry for Cc1ccc(S(=O)(=O)NC(=O)NN2CC3CCCC3C2)cc1 (stereo not given) lists logP 2.6 and log S -4.29 (log10 mol/L). Listed for C=C(C)C(=O)OCCC[Si](OC)(OC)OC: logP 2.1 and log vapor pressure -1.763 (log10 mmHg). For C=COC(=O)CCCCCCCCCCC the data give melting point 3.85 °C and log vapor pressure -2.881 (log10 mmHg). CCCCOc1cc(C(=O)OCCN(CC)CC)ccc1N is reported with logP 3.1 and log S -2.754 (log10 mol/L).

The entry for COC(=O)c1ccccc1OS(=O)(=O)c1ccc(C)cc1 lists melting point 137.6 °C and logP 1.8 and log S -3.597 (log10 mol/L). Listed for CCCS(=O)(=O)Nc1ccc(F)c(C(=O)c2cn(C(=O)c3c(Cl)cccc3Cl)c3ncc(-c4ccc(Cl)cc4)cc23)c1F: melting point 191 °C and log S -6.458 (log10 mol/L). For O=C(Nc1cc(Cl)c(NC(=O)c2cc3ccccc3c(N=Nc3cc(Cl)ccc3Cl)c2O)cc1Cl)c1cc2ccccc2c(N=Nc2cc(Cl)ccc2Cl)c1O the data give logP 0.465 and log S -8.151 (log10 mol/L). For Clc1ccc(Oc2cc(Cl)c(Cl)c(Cl)c2Cl)c(Cl)c1 the data give melting point 79 °C and log S -8.44 (log10 mol/L). [Cl-].c1ccc(C[n+]2cccc3ccccc32)cc1 is reported with plasma fu 0.599 and Clint 7.31 µL/min/10^6 cells. CCC(=O)OCCc1ccccc1 has melting point 8.51 °C and log S -3.117 (log10 mol/L) and log vapor pressure -1.289 (log10 mmHg).

For C=CCCCCCC=O the data give melting point -72.4 °C and logP 2.4 and log S -1.997 (log10 mol/L) and log vapor pressure 0.537 (log10 mmHg). Listed for CC(C)(C)C(=O)OC[C@H]1O[C@H](Br)[C@H](OC(=O)C(C)(C)C)[C@@H](OC(=O)C(C)(C)C)[C@@H]1OC(=O)C(C)(C)C: melting point 147.5 °C and log vapor pressure -8.314 (log10 mmHg). Listed for Cc1ccccc1Br: logP 3.5 and log S -2.23 (log10 mol/L). O=C(O[C@H]1CO[C@H]2[C@@H]1OC[C@H]2OC(=O)c1ccc(O)cc1)c1ccc(O)cc1 has melting point 187 °C and logP 2.8 and log S -4.132 (log10 mol/L). FC(F)(F)C(F)(F)C(F)(F)C(F)(F)C(F)(F)C(F)(F)C(F)(F)C(F)(F)Br is reported with logP 6.1 and log S -7.397 (log10 mol/L) and log vapor pressure 0.986 (log10 mmHg). The entry for Cc1cc(C(C)(C)C)c(O)c(C)c1Cn1c(=O)n(Cc2c(C)cc(C(C)(C)C)c(O)c2C)c(=O)n(Cc2c(C)cc(C(C)(C)C)c(O)c2C)c1=O lists log S -7.544 (log10 mol/L) and log vapor pressure -6.031 (log10 mmHg).

The entry for COC1=Cc2ccccc2Nc2ccccc21 lists melting point 125 °C and logP 2.9. The entry for CCCCCCCCCCCCc1ccc(S(=O)(=O)[O-])cc1.CCCCCCCCCCCCc1ccc(S(=O)(=O)[O-])cc1.CCCCCCCCCCCCc1ccc(S(=O)(=O)[O-])cc1.CCCCCCCCCCCCc1ccc(S(=O)(=O)[O-])cc1.[Ce+4] lists logP 2.2 and log S -4.929 (log10 mol/L). CCCCCCCC/C=C\CCCCCCCCNCCCNCCCNCCCN is reported with melting point 56 °C and logP -0.3 and log S -3.836 (log10 mol/L) and log vapor pressure -6.298 (log10 mmHg). C=CC(=O)OCCCCCCOc1ccc(C(=O)Oc2ccc(C#N)cc2)cc1 is reported with melting point 73 °C and log S -7.951 (log10 mol/L) and log vapor pressure -10.44 (log10 mmHg). Listed for CCC(C)(O)CCCC(C)C (stereo not given): logP 3.6 and log S -2.694 (log10 mol/L). For CCCCOc1ccc(B(O)O)c(F)c1F the data give melting point 128.5 °C and logP 3.2 and log S -3.714 (log10 mol/L) and log vapor pressure -4.954 (log10 mmHg).

Listed for CC(=O)C(N=Nc1ccc(-c2ccc(N=NC(C(C)=O)C(=O)Nc3ccccc3)c(Cl)c2)cc1Cl)C(=O)Nc1ccccc1 (stereo not given): melting point 320 °C and logP 2.1. For CC(C)(C)C(=O)OCn1cnc2c(cnn2COC(=O)C(C)(C)C)c1=O the data give logP 2.5 and log S -4.261 (log10 mol/L).

5 of these entries, quoted again:

{"smiles": "CCCCOc1cc(C(=O)OCCN(CC)CC)ccc1N", "logP": "3.1", "log S (log10 mol/L)": "-2.754"}
{"smiles": "Cc1cc(C(C)(C)C)c(O)c(C)c1Cn1c(=O)n(Cc2c(C)cc(C(C)(C)C)c(O)c2C)c(=O)n(Cc2c(C)cc(C(C)(C)C)c(O)c2C)c1=O", "log S (log10 mol/L)": "-7.544", "log vapor pressure (log10 mmHg)": "-6.031"}
{"smiles": "CC(=O)OCC(CNC(=O)c1c(I)c(N)c(I)c(C(=O)O)c1I)OC(C)=O", "stereo": "stereo not given", "melting point (°C)": "191.8", "logP": "-2.73"}
{"smiles": "C=CCCCCCC=O", "melting point (°C)": "-72.4", "logP": "2.4", "log S (log10 mol/L)": "-1.997", "log vapor pressure (log10 mmHg)": "0.537"}
{"smiles": "CCCS(=O)(=O)Nc1ccc(F)c(C(=O)c2cn(C(=O)c3c(Cl)cccc3Cl)c3ncc(-c4ccc(Cl)cc4)cc23)c1F", "melting point (°C)": "191", "log S (log10 mol/L)": "-6.458"}